# Experimental melting point values from OPERA 2.9

Values as listed in the OPERA 2.9 repository of K. Mansouri.

Melting points are in °C. "n/a" marks a cell with nothing listed here. "via" names the databases from which the curators took the value.

| structure (SMILES) | name | mp (°C) | via |
|---|---|---|---|
| O=C(O)CNC(=O)c1ccccc1Br | 2-Bromohippuric acid | 139 | OCHEM |
| Cn1ccnc1Sc1ccc(N)cc1 | 4-[(1-methyl-1H-imidazol-2-yl)thio]aniline | 118 | OCHEM |
| COC(=O)c1ccc(C)cc1C1=NC(=O)C(C)(C(C)C)N1 (configuration not stated) | n/a | 113 | OCHEM |
| O=C(O)Cc1cc2c(cc1Br)OCCO2 | (7-bromo-2,3-dihydro-1,4-benzodioxin-6-yl)acetic acid | 221 | OCHEM |
| NC(Cc1nc2ccccc2[nH]1)=NO | 2-(1H-benzimidazol-2-yl)-N'-hydroxyethanimidamide | 139 | OCHEM |
| N#Cc1ccc(Nc2nc(O)cc(=O)[nH]2)cc1 | n/a | 265.7 | eChemPortal |
| Cn1cc(C(=O)O)c(C(F)F)n1 | 3-(Difluoromethyl)-1-methyl-1H-pyrazole-4-carboxylic acid | 202.6 | eChemPortal |
| CCCCCCCCC=CCCCCCCCC(=O)OCCCCCCCCCCCC | n/a | 6 | eChemPortal |
| CCO[Si](CC(C)C)(OCC)OCC | Triethoxy(2-methylpropyl)silane | -72 | eChemPortal |
| O=C(O)CNC(=O)c1ccc(C(=O)NCC(=O)O)cc1 | N,N'-(1,4-Phenylenedicarbonyl)diglycine | 262 | OCHEM |
| O=C(Nc1ccc(C(=O)O)c(O)c1)c1cc(Cl)cc(Cl)c1 | 4-(3,5-Dichlorobenzamido)-2-hydroxybenzoic acid | 269 | OCHEM |
| CCCCC(CC)COCC(O)COc1ccc(-c2nc(-c3ccc(C)cc3C)nc(-c3ccc(C)cc3C)n2)c(O)c1 (configuration not stated) | n/a | 76.55 | eChemPortal |
| O=S(=O)(Cl)c1ccc(CCCl)cc1 | 4-(2-chloroethyl)benzenesulfonyl Chloride | 54 | OCHEM |
| CC(C)(C)N(NC(=O)c1ccccc1)C(=O)c1cccc(C(F)(F)F)c1 | N'-Benzoyl-N-tert-butyl-3-(trifluoromethyl)benzohydrazide | 204 | OCHEM |
| Cc1cc(Cl)n2ncnc2n1 | 7-chloro-5-methyl-[1,2,4]triazolo[1,5-a]pyrimidine | 221 | OCHEM |
| O=C(O)C1(c2cccc(Br)c2)CCCC1 | 1-(3-Bromophenyl)cyclopentane-1-carboxylic acid | 159 | OCHEM |
| CCOc1ncc(C)c2c1C(c1ccc(C#N)cc1OC)C(C(=O)OCCC#N)=C(C)N2 (configuration not stated) | n/a | 195.7 | eChemPortal |
| CNc1nc(CC(C)=O)ns1 | 1-[5-(Methylamino)-1,2,4-thiadiazol-3-yl]propan-2-one | 299 | OCHEM |
| O=C(O)COc1ccc(Cl)c2cccnc12 | 2-[(5-Chloro-8-quinolinyl)oxy]acetic acid | 216.8 | OCHEM, eChemPortal |
| FC(F)(Br)CBr | 1,2-Dibromo-1,1-difluoroethane | -61.3 | OCHEM |
| CCOCc1c(C(=O)O)oc2ccccc12 | 3-(ethoxymethyl)-1-benzofuran-2-carboxylic acid | 104 | OCHEM |
| O=C(OCC(=O)N1CCC1C(=O)O)c1ccccc1 (configuration not stated) | 1-[(Benzoyloxy)acetyl]azetidine-2-carboxylic acid | 150 | OCHEM |
| CCOC(=O)c1c(C)n(CC)c2ccc(O)cc12 | Ethyl 1-ethyl-5-hydroxy-2-methyl-1H-indole-3-carboxylate | 184 | OCHEM |
| COc1ccc(C(=O)O)cc1S(=O)(=O)Cl | 3-(chlorosulfonyl)-4-methoxybenzoic acid | 154 | OCHEM |
| O=C(O)CSCc1cccc(Cl)c1 | {[(3-Chlorophenyl)methyl]sulfanyl}acetic acid | 75 | OCHEM |
| N#CCC(=O)NC1CC1 | 2-cyano-N-cyclopropylacetamide | 88.5 | OCHEM |
| CCCC1CCC(C2CCC(c3ccc(OC)c(F)c3F)CC2)CC1 (configuration not stated) | n/a | 87.7 | eChemPortal |
| CCCOc1ccc(OCC(=O)O)cc1 | (4-propoxyphenoxy)acetic acid | 107 | OCHEM |
| OCCc1nc2ccccc2s1 | 2-(1,3-Benzothiazol-2-yl)ethan-1-ol | 42 | OCHEM |
| O=C(CCC(F)(F)C(F)(F)C(F)(F)C(F)(F)C(F)(F)C(F)(F)F)ON1C(=O)CCC1=O | n/a | 129 | ChemicalBook |
| CC(CO)CCCC1CCCCC1 (configuration not stated) | Cyclohexanepentanol, .beta.-methyl- | -32.5 | eChemPortal |

Extract of 2 entries:

| structure (SMILES) | name | mp (°C) | via |
|---|---|---|---|
| CCCCC(CC)COCC(O)COc1ccc(-c2nc(-c3ccc(C)cc3C)nc(-c3ccc(C)cc3C)n2)c(O)c1 (configuration not stated) | n/a | 76.55 | eChemPortal |
| CCCC1CCC(C2CCC(c3ccc(OC)c(F)c3F)CC2)CC1 (configuration not stated) | n/a | 87.7 | eChemPortal |

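OPERA's authors assembled the values from existing databases and did not measure them anew. The files give a single number for a compound and property, which may rest on several reports. Conditions of the individual experiments are not part of the data. A value may pool stereoisomers or salt forms, and the file does not say which form was measured. Unmarked limits or estimates from the upstream databases cannot be ruled out.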